We go through three molecules from US11639373B2, “Therapeutic and diagnostic agents for cancer” (TECHNISCHE UNIVERSITÄT MÜNCHEN, priority 2018, dated 2023).

Amino acid sequences for entries named in this document (tags omitted).
UniProt P61073, whole entry: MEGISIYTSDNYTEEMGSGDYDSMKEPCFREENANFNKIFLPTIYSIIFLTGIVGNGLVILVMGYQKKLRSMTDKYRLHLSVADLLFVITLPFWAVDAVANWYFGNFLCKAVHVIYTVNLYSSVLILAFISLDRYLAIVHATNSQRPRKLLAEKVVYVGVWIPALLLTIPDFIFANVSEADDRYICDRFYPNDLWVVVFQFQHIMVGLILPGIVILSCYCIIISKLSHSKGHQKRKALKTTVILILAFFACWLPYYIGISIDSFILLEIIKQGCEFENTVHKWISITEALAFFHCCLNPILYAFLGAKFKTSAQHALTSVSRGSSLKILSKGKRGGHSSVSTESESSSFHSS
UniProt P70658, whole entry: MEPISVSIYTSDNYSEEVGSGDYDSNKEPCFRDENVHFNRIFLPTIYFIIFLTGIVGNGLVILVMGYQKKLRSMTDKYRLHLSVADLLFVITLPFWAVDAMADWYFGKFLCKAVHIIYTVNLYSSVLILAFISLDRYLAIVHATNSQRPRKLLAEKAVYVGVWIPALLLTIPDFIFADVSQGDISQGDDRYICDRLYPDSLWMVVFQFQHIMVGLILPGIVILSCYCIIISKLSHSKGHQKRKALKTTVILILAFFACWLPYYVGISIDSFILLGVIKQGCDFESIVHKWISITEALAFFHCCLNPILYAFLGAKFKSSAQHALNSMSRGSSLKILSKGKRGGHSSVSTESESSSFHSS

For experiment [1], the target named is T1, human CXCR4 (Homo sapiens, UniProt P61073).
T1 construct: using CXCR4 positive Jurkat human T-cell leukemia cells; endogenous in cells; host or cells: Jurkat human T-cell leukemia cells
Nature of the experiment: Competitive binding assay to human CXCR4, Jurkat cells, [125I]FC131 radioligand.

Experiment [2] addresses T2, murine CXCR4 (Mus musculus, UniProt P70658).
T2 construct: The murine CXCR4 expressing cell line Ep-Myc1080; endogenous in cells; host or cells: Eμ-Myc1080 mouse B-cell lymphoma cells
Nature of the experiment: Competitive binding assay to murine CXCR4, Eμ-Myc1080 cells, [125I]CPCR4.3 radioligand. Particulars: Eμ-Myc1080 mouse B-cell lymphoma cells. On the procedure:
Competition studies addressing the human CXCR4 were performed using CXCR4 positive Jurkat human T-cell leukemia cells and ^125I-FC131 (^125I-2), addressing the murine CXCR4, Ep-Myc1080 mouse B-cell lymphoma cells and ^125I-CPCR4.3 (Demmer et al. A Conformationally Frozen Peptoid Boosts CXCR4 Affinity and Anti-HIV Activity. Angewandte Chemie International Edition. 2012; 51:8110-8113) as the radioligand were utilized as described previously (Poschenrieder et al., The influence of different metal-chelate conjugates of pentixafor on the CXCR4 affinity. EJNMMI research. 2016; 6:1-8).
The binding affinities (IC50) of the respective ^natLu and ^natGa derivatives towards the human and murine CXCR4 (Table 1a) were determined in a competitive binding assay using Jurkat human T-cell leukemia cells or Ep-Myc1080 mouse B-cell lymphoma cells (4.0 and 2.0*10^5 cells/well, 2 h, RT) and ^125I-2 or ^125I-CPCR4.3 (0.1 nM) as the radioligand. To be able to assess the effect of structural modifications in the SAR study on CXCR4 binding affinity, data for ^natGa-pentixafor (^natGa-3) and ^natLu-pentixather (^natLu-4) are also included in Table 1a.

Read-outs that look alike come from different tables or passages of the source.

Consider `CN1C(=O)[C@@H](Cc2ccc(O)c(I)c2)NC(=O)CNC(=O)[C@H](Cc2ccc3ccccc3c2)NC(=O)[C@H](CCCNC(=N)N)NC(=O)[C@H]1CCCNC(=O)c1ccc(NC(=O)CNC(=O)[C@H](CCCNC(=N)N)n2cc(C[N+](C)(C)C[B-](F)(F)F)nn2)cc1` [F3, cyclo[i-yorn′(AMBF3(methyl(1H-1,2,3-triazol-4-yl)-rG-4-amino)benzoyl-)RNaIG]], for which, in experiment [1] (Table 1b, 18F-labeling precursors, [^125I]FC-131, read-out: IC50 [nM] to hCXCR4), the IC50 was 2.9 ± 0.9 nM.

As for `CN1C(=O)[C@@H](Cc2ccc(O)c(I)c2)NC(=O)CNC(=O)[C@H](Cc2ccc3ccccc3c2)NC(=O)[C@H](CCCNC(=N)N)NC(=O)C1CCCNC(=O)c1ccc(NC(=O)CNC(=O)[C@H](CCCCN)NC(=O)CN2CCN(CC(=O)O)CCN(CC(=O)O)CCN(CC(=O)O)CC2)cc1` (stereo partly drawn) [P3], the IC50 amounted to 37.1 ± 2.9 nM in experiment [2] (Table 1c, read-out: IC50 [nM] to mCXCR4); 61.4 ± 17 nM in experiment [2] (^natLu complexes, mean ± SD (n = 3), 120 min, read-out: mIC50[nM] ^natLu complexes and murine CXCR4).

On to `CN1C(=O)[C@@H](Cc2ccc(O)c(I)c2)NC(=O)CNC(=O)[C@H](Cc2ccc3ccccc3c2)NC(=O)[C@H](CCCNC(=N)N)NC(=O)[C@H]1CCCNC(=O)c1ccc(NC(=O)CNC(=O)[C@H](CN)NC(=O)CN2CCN(CC(=O)O)CCN(CC(=O)O)CCN(CC(=O)O)CC2)cc1` [P2], for which the IC50 amounted to 3.5 ± 0.4 nM in experiment [1] (Table 1b, ^natBi metal complexes, [^125I]FC-131, read-out: IC50 [nM] to hCXCR4 [^natBi]); 3.5 ± 0.3 nM in experiment [1] (Table 1b, ^natLu metal complexes, [^125I]FC-131, read-out: IC50 [nM] to hCXCR4 [^natLu]); 3.5 ± 0.3 nM in experiment [1] (^natLu complexes, [^125I]FC131 0.1 nM, RT 2 h, mean ± SD (n = 3), read-out: IC50 [nM] for ^natLu-complexes and human CXCR4).
